Reference: PMC3986664 (Molecular Metabolism, 2014)

Assay: Long-term stability study, alkaline RP-HPLC
Format: physicochemical
Conditions: for Total degradation: ambient temperature

- Difference in stability at six months between IUB75 and IUB76 (Δ2) (Figure 8, trend-line of degradation slopes): 10%
- Total degradation (one year, 1 mg/ml, 20 mM Tris, 0.1% SDS, pH 8.6, relative to the approximately 10% at six months): twice that amount
- Degradation (one year, refrigeration at 4 °C, 1 mg/ml, 20 mM Tris, 0.1% SDS, pH 8.6): less than 10%
- Total degradation (six months, 1 mg/ml, 20 mM Tris, 0.1% SDS, pH 8.6): approximately 10%
SMILES: CC(=O)NCC[C@H](NC(=O)[C@H](CO)NC(=O)[C@@H](N)Cc1c[nH]cn1)C(=O)NCC(=O)N[C@H](C(=O)N[C@@H](Cc1ccccc1)C(=O)N[C@H](C(=O)N[C@@H](CO)C(=O)N[C@@H](CC(=O)O)C(=O)N[C@@H](Cc1ccc(O)cc1)C(=O)N[C@@H](CO)C(=O)N[C@@H](CCCCN)C(=O)N[C@@H](Cc1ccc(O)cc1)C(=O)N[C@@H](CC(C)C)C(=O)N[C@@H](CC(=O)O)C(=O)NC(C)(C)C(=O)N[C@@H](CCCNC(=N)N)C(=O)N[C@@H](CCCNC(=N)N)C(=O)N[C@@H](C)C(=O)N[C@@H](C)C(=O)N[C@@H](CC(=O)O)C(=O)N[C@@H](Cc1ccccc1)C(=O)N[C@H](C(=O)N[C@@H](C)C(=O)N[C@@H](Cc1c[nH]c2ccccc12)C(=O)N[C@@H](CC(C)C)C(=O)N[C@@H](CC(C)C)C(=O)N[C@@H](CC(=O)O)C(=O)N[C@@H](CCC(=O)O)C(=O)O)C(C)C)[C@@H](C)O)[C@@H](C)O [IUB76]
